The source of these data is PubChem BioAssay AID2521 (Sanford-Burnham Center for Chemical Genomics, 2010).

By UniProt entry, the sequences of proteins in these tests, tags left out.
UniProt P35414, whole entry: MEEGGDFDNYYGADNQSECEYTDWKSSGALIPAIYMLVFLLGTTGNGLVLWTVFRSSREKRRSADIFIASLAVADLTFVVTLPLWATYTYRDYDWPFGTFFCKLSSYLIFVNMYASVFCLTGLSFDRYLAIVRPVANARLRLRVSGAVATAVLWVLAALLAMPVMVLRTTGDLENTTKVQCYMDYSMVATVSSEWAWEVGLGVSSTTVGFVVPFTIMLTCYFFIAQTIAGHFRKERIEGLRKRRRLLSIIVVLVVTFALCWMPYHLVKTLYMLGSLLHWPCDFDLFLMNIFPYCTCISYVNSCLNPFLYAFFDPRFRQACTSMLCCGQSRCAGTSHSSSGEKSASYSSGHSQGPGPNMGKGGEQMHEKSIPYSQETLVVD

Structures are written as SMILES. Only a part is listed here, and it is no random draw. Some tests of the compounds listed are not included; inactive here does not mean inactive elsewhere. Calls of active or inactive are those of the source.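 Rule for the calls: active = inhibition above about 40% at 20 µM (limit read from the data); inactive = the rest.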

The target of the assay is Apelin receptor (Homo sapiens) (UniProt P35414). Description: antagonists of human apelin receptor APJ, primary screen, CHO-K1 cells, beta-arrestin complementation, luminescence (AID 2521).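 Note: cells challenged with 10 nM apelin-13 agonist together with compound; plate controls were apelin-13 plus DMSO wells for no effect and DMSO wells lacking apelin-13 for full effect.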 Particulars: at 20 µM, active compounds read high.
For the compound `O=C(OC1CN2CCC1CC2)C(CO)(c1ccccc1)c1ccccc1` (centres undefined), the inhibition is inactive: 5.81%.
The same measure for `COc1ccc(Br)c(C(=O)NCC2(N3CCCCC3)CCCCC2)c1`: inactive: 10.1%; for `CC(C)Oc1ccc(C(=O)NCC2(N(C)C)CCCCC2)cc1`: inactive: -2.77%.
The same measure for `CN(C)c1cccc(C(=O)NCC2(N(C)C)CCCCC2)c1`: inactive: 4.89%.
The same measure for `CN(C)C1(CNC(=O)c2ccc(Br)cc2)CCCCC1`: inactive: -32.7%.
As for `COc1cc(C(=O)NCC2(N(C)C)CCCCC2)c([N+](=O)[O-])cc1OC`, the inhibition was inactive: -4.27%.
The same measure for `COc1ccc(Cl)cc1C(=O)NCC1(N(C)C)CCCCC1`: inactive: 8.81%.
The same measure for `COc1cccc(C(=O)NCC2(N3CCCCC3)CCCCC2)c1`: inactive: 3.13%; for `O=C(NCC1(N2CCCCC2)CCCCC1)c1cccc(Cl)c1`: inactive: -1.87%; for `CN(C)C1CCCC1OC(=O)C(O)(c1ccccc1)c1ccccc1` (centres undefined): inactive: -16.2%.
Regarding `CN(C)c1ccc(C(=O)NCC2(N(C)C)CCCCC2)cc1`, the inhibition was inactive: 13%.
The same measure for `Cc1ccccc1C(=O)NCC1(N2CCCCC2)CCCCC1`: inactive: 3.29%; for `O=C(NCC1(N2CCCCC2)CCCCC1)c1cc(F)c(F)cc1Cl`: inactive: -0.76%; for `C=CCN1CCN(CCOC(=O)C(O)(c2ccccc2)c2ccccc2)CC1`: inactive: -24.8%.
Turning to `COc1ccc(C(=O)NCC2(N(C)C)CCCCC2)cc1`, the inhibition is inactive: -19.4%.
The same measure for `O=C(NCC1(N2CCCCC2)CCCCC1)c1cccc(Br)c1`: inactive: -1.65%.
`Cc1cc(C(=O)NCC2(N3CCCCC3)CCCCC2)ccc1[N+](=O)[O-]`: the inhibition was inactive: 5.86%.
The same measure for `CCN1CCCC(OC(=O)C2(O)c3ccccc3C=Cc3ccccc32)C1` (centres undefined): inactive: -0.165%; for `O=C(NCC1(N2CCCCC2)CCCCC1)c1cc([N+](=O)[O-])ccc1Cl`: inactive: -9.95%; for `CN1[C@@H]2CC[C@H]1CC(OC(=O)C(O)(c1ccccc1)c1ccccc1)C2` (some centres undefined): inactive: -11.9%.
The same measure for `COc1cc(SC)ccc1C(=O)NCC1(N(C)C)CCCCC1`: inactive: 11%; for `CCN(CC)CC(C)C(C)OC(=O)C(O)(c1ccccc1)c1ccccc1` (centres undefined): inactive: -34.5%.
The same measure for `CC(C)N1C(=O)CC2(CCN(CCOC(=O)C(O)(c3ccccc3)c3ccccc3)CC2)C1=O`: inactive: 5.21%; for `Cc1ccc(C(=O)NCC2(N3CCCCC3)CCCCC2)cc1`: inactive: 28.3%.
